Chains of the proteins cited; added tags and fusions are not shown. Residues count along the entry.
UniProt P07333, 20-972 limits assumed: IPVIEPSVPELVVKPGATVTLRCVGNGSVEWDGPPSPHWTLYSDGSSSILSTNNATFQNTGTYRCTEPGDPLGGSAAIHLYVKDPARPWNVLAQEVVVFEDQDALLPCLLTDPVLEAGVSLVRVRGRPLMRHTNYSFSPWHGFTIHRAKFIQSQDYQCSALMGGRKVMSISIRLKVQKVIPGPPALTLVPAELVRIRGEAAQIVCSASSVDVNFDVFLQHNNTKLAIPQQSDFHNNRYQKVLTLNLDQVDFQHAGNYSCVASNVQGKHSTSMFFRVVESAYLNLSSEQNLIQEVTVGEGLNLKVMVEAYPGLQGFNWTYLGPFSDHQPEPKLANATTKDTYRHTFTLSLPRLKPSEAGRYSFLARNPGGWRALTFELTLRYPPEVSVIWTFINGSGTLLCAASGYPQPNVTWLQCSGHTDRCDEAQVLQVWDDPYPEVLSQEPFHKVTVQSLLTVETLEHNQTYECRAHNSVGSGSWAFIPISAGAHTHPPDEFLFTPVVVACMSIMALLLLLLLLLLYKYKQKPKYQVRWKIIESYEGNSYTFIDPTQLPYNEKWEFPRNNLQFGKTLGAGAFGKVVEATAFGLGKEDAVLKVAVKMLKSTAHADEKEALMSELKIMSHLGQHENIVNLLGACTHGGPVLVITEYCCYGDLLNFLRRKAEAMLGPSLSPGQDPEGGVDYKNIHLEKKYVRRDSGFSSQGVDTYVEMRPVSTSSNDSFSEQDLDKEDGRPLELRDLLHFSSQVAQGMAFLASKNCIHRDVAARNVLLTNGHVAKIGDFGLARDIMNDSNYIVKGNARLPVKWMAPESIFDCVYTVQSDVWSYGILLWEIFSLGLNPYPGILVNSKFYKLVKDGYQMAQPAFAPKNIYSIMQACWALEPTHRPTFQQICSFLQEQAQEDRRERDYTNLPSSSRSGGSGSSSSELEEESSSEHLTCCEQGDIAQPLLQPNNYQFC

In paper PMC6084503, “Pyrrolo[3,2-c]pyridine derivatives with potential inhibitory effect against FMS kinase: in vitro biological studies” (Journal of Enzyme Inhibition and Medicinal Chemistry, 2018):

target: FMS kinase (Homo sapiens, UniProt P07333); experiment: Kinase HotSpot cell-free enzyme assay, FMS kinase; settings: read-out: IC50 against FMS kinase; 10-dose duplicate assay, mean ± SEM, starting with 81 µM, threefold serial dilution
Description: Reaction Biology Corp. Kinase HotSpot^SM service [http://www.reactionbiology.com] was utilised for screening of the target compounds as per the protocol reported in the literature. In order to calculate the IC50 values and the inhibition percentages at different concentrations, each compound was tested in 10-dose duplicate assay mode starting with 81 µM and threefold serial dilution.
Compounds 1a–r were tested in a 10-dose testing mode starting with 81 µM, threefold serial dilutions, against FMS kinase in a cell-free enzyme assay. […] This can be due to occupancy of a hydrophobic pocket with that additional benzoyl moiety and/or formation of additional hydrogen bond by the carbonyl oxygen.

| IC50 [µM] | SMILES |
| --- | --- |
| 0.19 | O=C(Nc1ccc(-n2ccc3c(NC(=O)c4ccccc4)nccc32)cc1)Nc1cccc(C(F)(F)F)c1 |
| 1.43 | O=C(Nc1cccc(-n2ccc3c(NC(=O)c4ccccc4)nccc32)c1)Nc1cccc(C(F)(F)F)c1 |
| > 81 | O=C(Nc1ccc(-n2ccc3c(NC(=O)c4ccccc4)nccc32)cc1)c1cc(C(F)(F)F)cc(C(F)(F)F)c1 |
| > 81 | Nc1nccc2c1ccn2-c1ccc(NC(=O)c2cc(C(F)(F)F)cc(C(F)(F)F)c2)cc1 |
